Data taken from patent US20230142913A1, “TRICYCLIC HETEROARENES, PHARMACEUTICAL COMPOSITIONS CONTAINING THE SAME, AND METHODS OF USING THE SAME” (priority 2021, published 2023).

Target: T1, recombinant human Myt1 (full length PKMYT1) (Homo sapiens, UniProt Q99640)
T1 sequence (Q99640 1-499): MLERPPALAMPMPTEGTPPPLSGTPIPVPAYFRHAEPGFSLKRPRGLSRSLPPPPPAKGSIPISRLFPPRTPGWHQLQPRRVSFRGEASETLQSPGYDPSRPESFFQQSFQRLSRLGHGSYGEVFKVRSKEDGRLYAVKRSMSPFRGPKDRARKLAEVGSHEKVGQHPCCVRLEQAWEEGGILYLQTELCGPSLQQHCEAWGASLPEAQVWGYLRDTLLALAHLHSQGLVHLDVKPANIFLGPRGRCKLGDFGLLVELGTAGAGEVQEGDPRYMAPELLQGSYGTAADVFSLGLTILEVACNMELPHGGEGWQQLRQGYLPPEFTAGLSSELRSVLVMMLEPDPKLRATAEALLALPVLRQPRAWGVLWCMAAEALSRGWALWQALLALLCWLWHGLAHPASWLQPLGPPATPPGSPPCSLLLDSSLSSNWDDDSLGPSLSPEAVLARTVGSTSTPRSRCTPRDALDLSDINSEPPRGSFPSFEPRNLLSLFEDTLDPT
Assay: Recombinant human Myt1 kinase assay (ADP-Glo)

IC50 (Myt1 IC50 (nM), recombinant human Myt1 18 nM, ATP 10 μM, ADP-Glo luminescence) | SMILES | IC50 (read-out: Myt1 IC50)
 | Cc1ccc2[nH]ncc2c1-n1c(N)c(C(N)=O)c2nc3ccccc3nc21 [Compound 86] | 53 nM
 | NC(=O)c1c(N)n(-c2cccc3[nH]ncc23)c2nc3ccccc3nc12 [Compound 10] | 182 nM
 | CNC(=O)c1c(N)n(-c2cc(O)ccc2C)c2nc3ccccc3nc12 [Compound 22] | 690 nM
 | CCNC(=O)c1c(N)n(-c2cc(O)ccc2C)c2nc3ccccc3nc12 [Compound 19] | 4060 nM
1160 nM | Cc1ccc(O)cc1-n1c(N)c(C(=O)NCCO)c2nc3ccccc3nc21 [Compound 21] | 

Where two headings read alike, the source gives them in different places.
